# Experimental data from patent US20170266133A1 (priority 2014, published 2017).
# By UniProt entry, the sequences of proteins in these tests, tags left out.
# UniProt P31645, whole entry: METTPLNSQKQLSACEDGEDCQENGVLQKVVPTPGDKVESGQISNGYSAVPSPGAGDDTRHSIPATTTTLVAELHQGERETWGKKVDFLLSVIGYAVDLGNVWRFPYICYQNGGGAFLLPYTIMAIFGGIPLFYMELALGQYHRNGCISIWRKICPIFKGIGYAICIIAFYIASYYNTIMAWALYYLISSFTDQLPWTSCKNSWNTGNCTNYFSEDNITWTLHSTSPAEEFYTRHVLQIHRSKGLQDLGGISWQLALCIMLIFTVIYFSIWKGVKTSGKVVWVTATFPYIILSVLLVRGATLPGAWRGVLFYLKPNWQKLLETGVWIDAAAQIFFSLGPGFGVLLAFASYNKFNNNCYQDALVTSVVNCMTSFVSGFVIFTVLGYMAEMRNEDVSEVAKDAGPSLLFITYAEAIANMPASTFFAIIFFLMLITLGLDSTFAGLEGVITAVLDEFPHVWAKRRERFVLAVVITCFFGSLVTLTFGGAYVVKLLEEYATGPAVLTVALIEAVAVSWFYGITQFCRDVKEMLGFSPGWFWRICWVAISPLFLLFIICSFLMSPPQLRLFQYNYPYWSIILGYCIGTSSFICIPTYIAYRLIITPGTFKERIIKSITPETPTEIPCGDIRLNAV
# Molecular target: human serotonin transporters (SERT) (Homo sapiens, UniProt P31645)
# Assay: serotonin uptake inhibition
# Assay type: biochemical
# Description: Dasotraline [(1R,4S)-4-(3,4-Dichlorophenyl)-1,2,3,4-tetrahydronaphthalen-1-amine] is a novel compound with DNRI pharmacology.
compound,measurement,value
"N[C@@H]1CC[C@@H](c2ccc(Cl)c(Cl)c2)c2ccccc21 [dasotraline, (1R,4S)-4-(3,4-Dichlorophenyl)-1,2,3,4-tetrahydronaphthalen-1-amine]",IC50,0.015 µM
